{"sequences": {"note": "Amino acid sequences for entries named in this document (tags omitted). A change or cut given only in a name is not applied to a line headed by its entry.", "UniProt Q96SB4, whole entry": "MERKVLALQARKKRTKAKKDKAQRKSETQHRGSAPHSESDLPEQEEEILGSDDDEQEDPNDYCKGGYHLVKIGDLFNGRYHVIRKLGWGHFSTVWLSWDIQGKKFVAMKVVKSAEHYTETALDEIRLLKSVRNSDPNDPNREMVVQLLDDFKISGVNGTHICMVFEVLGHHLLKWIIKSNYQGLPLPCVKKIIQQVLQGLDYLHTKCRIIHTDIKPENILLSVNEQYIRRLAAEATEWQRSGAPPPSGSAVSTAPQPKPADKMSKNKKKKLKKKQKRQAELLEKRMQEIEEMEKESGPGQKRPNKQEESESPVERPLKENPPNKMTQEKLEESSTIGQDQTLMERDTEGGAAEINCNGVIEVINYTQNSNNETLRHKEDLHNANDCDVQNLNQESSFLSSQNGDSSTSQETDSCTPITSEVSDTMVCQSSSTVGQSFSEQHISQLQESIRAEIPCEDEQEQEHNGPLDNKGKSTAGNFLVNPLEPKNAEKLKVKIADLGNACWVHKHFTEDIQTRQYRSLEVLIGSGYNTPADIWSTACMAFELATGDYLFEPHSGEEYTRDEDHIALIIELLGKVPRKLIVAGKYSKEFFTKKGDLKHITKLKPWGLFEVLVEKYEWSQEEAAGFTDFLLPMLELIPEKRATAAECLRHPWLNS", "UniProt P45983": "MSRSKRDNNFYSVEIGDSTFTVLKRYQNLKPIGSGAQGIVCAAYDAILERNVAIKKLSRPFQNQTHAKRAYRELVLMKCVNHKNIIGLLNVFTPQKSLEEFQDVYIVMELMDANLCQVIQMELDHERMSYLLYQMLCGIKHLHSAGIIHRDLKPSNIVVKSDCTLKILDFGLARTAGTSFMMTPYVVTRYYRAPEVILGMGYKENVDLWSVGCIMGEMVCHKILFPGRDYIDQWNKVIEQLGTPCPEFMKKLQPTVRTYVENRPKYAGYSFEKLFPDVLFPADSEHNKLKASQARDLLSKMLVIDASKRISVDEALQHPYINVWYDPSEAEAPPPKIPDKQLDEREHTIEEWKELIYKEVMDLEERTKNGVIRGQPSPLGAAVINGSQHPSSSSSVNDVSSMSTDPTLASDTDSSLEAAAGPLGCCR"}, "source": "ChEMBL document CHEMBL1150976", "about": "“The selectivity of protein kinase inhibitors: a further update” (Biochem J, 2007)", "key": {"[1]": {"target": "SRSF protein kinase 1 (Homo sapiens) (UniProt Q96SB4)", "experiment": "Percentage SRPK1 activity remaining in the presence of 25uM inhibitor"}, "[2]": {"target": "T1, 3-phosphoinositide-dependent protein kinase 1 (Homo sapiens) (UniProt O15530)", "T1 sequence (whole entry)": "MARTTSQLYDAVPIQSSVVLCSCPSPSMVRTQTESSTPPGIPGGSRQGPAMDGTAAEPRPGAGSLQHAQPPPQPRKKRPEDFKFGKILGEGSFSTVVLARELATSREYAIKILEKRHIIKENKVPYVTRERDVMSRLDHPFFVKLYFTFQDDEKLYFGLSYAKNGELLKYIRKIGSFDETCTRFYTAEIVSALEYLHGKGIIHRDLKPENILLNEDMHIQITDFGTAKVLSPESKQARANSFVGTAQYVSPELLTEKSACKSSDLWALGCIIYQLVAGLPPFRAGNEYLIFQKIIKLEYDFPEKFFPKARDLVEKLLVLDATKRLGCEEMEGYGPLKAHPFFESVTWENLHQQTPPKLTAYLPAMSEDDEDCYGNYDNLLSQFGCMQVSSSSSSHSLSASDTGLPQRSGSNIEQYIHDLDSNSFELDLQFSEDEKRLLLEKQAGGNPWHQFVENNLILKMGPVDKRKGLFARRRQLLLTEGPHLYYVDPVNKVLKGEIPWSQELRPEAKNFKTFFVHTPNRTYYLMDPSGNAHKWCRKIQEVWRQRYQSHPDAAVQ", "experiment": "Percentage PDK1 activity remaining in the presence of 25uM inhibitor"}, "[3]": {"target": "Mitogen-activated protein kinase 8 (Homo sapiens, UniProt P45983)", "experiment": "Percentage JNK1 activity remaining in the presence of 25uM inhibitor"}, "[4]": {"target": "Protein kinase C alpha type (Homo sapiens) (UniProt P17252)", "experiment": "Percentage PKCalpha activity remaining in the presence of 25uM inhibitor"}}}
{"smiles": "COc1cc(OC)c(/C=C2/C(=O)Nc3ccccc32)c(OC)c1", "values": [{"measurement": "Activity", "setting": "[1]", "result": 95, "unit": "%"}, {"measurement": "Activity", "setting": "[2]", "result": 89, "unit": "%"}, {"measurement": "Activity", "setting": "[3]", "result": 94, "unit": "%"}, {"measurement": "Activity", "setting": "[4]", "result": 90, "unit": "%"}]}
